# Source: PubChem BioAssay AID1298 (SRMLSC, 2008)
# This is a selection; strong and weak results do not stand in their true shares. Activity calls are given as the source filed them.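 The calls were made as follows: active = RAM network inhibition above 8.4% in each of two replicates, 3 SD over the compound average; inconclusive = above 8.4% inhibition in only one replicate; inactive = 8.4% inhibition or less in each replicate.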
# Experiment: RAM signaling pathway blockade in yeast – S. cerevisiae, Pdr1DBD-CYC8 efflux-inhibited sensitized strain, primary screen (AID 1298);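 also: 0% = DMSO untreated cells without growth and 100% = 10 µM 1-NA-PP1 full growth; higher means more yeast growth rescued from 5-FOA killing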
# Conditions: S. cerevisiae cbk1-as DSE1-URA3 strain, 5-FOA growth OD615, 2 d; at 50 µM; hits give high values
row,Compound,RAM network inhibition
1,COC(=O)c1cc2c(s1)N=C(c1ccccc1)N(C)P2(=O)N1CCOCC1 (stereo unspecified),inactive: 3.37%
